# Assay results published in patent US20110183942A1, “Methods and Compositions for Treating Alzheimer's Disease” (UNIVERSITY OF MEDICINE AND DENTISTRY OF NEW JERSEY, priority 2008, published 2011).
# Target: T1, eEF2 kinase (Homo sapiens, UniProt O00418)
# T1 construct: made in house; host or cells: E. coli
# Assay: HTS screen for eEF2 kinase inhibitors (ATP depletion coupled to luciferase luminescence, eEF2p substrate)
# Format: biochemical
smiles,measurement,value
CCCCCCCCCCCCCCCCN1C2=NCCCN2c2ccccc21 [L-587],identified as inhibitor for eEF2 kinase,inhibitors for eEF2 kinase
